This passage reports Ki results from ChEMBL document CHEMBL1138170, “Novel lactam NK1 antagonists with anti-emetic activity” (Bioorg Med Chem Lett, 2006).

Chains of the proteins cited; added tags and fusions are not shown. Lines headed by an entry give the natural chain unless they say otherwise; changes in a name come on top.
UniProt Q12809: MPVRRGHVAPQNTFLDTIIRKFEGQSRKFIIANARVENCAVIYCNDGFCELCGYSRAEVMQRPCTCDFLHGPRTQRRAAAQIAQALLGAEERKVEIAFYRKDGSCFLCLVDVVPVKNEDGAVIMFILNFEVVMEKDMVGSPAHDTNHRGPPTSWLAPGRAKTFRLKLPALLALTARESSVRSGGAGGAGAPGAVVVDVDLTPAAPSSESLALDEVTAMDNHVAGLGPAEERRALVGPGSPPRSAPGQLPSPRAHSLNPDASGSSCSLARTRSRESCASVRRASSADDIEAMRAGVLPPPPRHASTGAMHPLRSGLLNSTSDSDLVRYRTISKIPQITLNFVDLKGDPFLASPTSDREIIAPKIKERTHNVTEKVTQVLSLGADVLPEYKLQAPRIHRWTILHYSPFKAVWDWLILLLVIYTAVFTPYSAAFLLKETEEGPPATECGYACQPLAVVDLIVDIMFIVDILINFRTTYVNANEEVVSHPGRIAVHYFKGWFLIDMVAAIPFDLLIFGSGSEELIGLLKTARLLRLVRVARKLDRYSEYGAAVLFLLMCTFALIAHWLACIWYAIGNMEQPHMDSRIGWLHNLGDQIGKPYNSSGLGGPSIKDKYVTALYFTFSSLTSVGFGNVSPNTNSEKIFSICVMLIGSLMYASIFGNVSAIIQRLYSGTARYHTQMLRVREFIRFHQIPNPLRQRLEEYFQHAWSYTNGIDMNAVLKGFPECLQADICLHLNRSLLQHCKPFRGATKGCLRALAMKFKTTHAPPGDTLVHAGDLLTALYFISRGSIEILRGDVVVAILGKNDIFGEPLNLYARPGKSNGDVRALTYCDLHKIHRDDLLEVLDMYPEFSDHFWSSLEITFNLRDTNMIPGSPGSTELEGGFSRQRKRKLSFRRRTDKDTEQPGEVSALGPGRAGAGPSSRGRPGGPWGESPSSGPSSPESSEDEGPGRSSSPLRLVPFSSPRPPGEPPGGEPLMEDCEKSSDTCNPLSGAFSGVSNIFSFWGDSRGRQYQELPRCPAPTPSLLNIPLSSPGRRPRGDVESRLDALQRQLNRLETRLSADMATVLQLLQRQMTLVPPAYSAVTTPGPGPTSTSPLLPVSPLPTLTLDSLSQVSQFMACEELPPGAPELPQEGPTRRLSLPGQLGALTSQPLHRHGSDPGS

The target of this assay is Voltage-gated inwardly rectifying potassium channel KCNH2 (Homo sapiens, UniProt Q12809). Briefly: Displacement of labelled MK-499 from cloned channel hERG expressed in HEK cells. In kind it is cell-based, HEK293. On the technique in general: The hERG channel carries a current that helps repolarise heart muscle cells.

For orientation: Ki means a measure of affinity in units of concentration, obtained from inhibition or displacement. `CC(C(=O)N[C@]1(c2ccccc2)CC[C@@H](N2CCC3(CCOC3)CC2)CC1)c1cc(C(F)(F)F)cc(C(F)(F)F)c1` (stereo partly specified) yielded an inhibition constant Ki of 787 nM.
